Test results reported in US8703910B2 (priority 2008, dated 2014).

Test system: House fly (Musca domestica)
Conditions: in vivo

bovine serum albumin [BSA Protein]
Dead (Time post treatment): 1(?) (~7 hr) and 1 (~18 hr) and 1 (~26 hr)

Several values for one entry are separate records, joined by “and”; a condition that tells them apart may be missing. Equal values may be shown once.
